# Earlier results in patent publication US20180340012A1, “METHODS AND CO[…] TO IMPROVING PROPERTIES OF PHARMACOLOGICAL AGENTS TARGETING NERVOUS SYSTEM” (University of Utah Research Foundation, priority 2006, published 2018).
# Target: galanin receptors
# Conditions: truncation of GAL(1-16) fragment; read-out: KD towards galanin receptors; cited from earlier work
smiles,measurement,value
CC[C@H](C)[C@H](NC(=O)[C@H](C)NC(=O)[C@H](Cc1c[nH]cn1)NC(=O)[C@@H]1CCCN1C(=O)CNC(=O)[C@H](CC(C)C)NC(=O)[C@H](CC(C)C)NC(=O)[C@H](Cc1ccc(O)cc1)NC(=O)CNC(=O)[C@H](C)NC(=O)[C@H](CO)NC(=O)[C@H](CC(N)=O)NC(=O)[C@H](CC(C)C)NC(=O)[C@@H](NC(=O)[C@H](Cc1c[nH]c2ccccc12)NC(=O)CN)[C@@H](C)O)C(=O)O [Fragment 1-16],Kd,7 nM
